# Assay results: article PMC11024197 (Nature Communications, 2024)
# Target: T1, PEX5 NTD (1-315) (human, UniProt P50542 1-315)
# T1 construct: source: E. coli BL21 (DE3), purified (Ni-NTA, SEC)
# Assay: NMR titration; 15N-labelled PEX13 construct (100 µM reference) with unlabelled ligand added; 1H,15N correlation spectra; 298 K; 20 mM Tris pH 7.5, 50 mM NaCl
# Details: both partners purified
row,binding result,Binder
1,binds,"PEX13 SH3 domain (residues 261-346) (domain or fragment, human, UniProt Q92968 261-346, looked up, 15N-labelled in the NMR titrations, unlabelled in ITC; also called PEX13 SH3 261-346; source: E. coli BL21 (DE3), purified (Ni-NTA, SUMO cleavage, reverse Ni-NTA, SEC); not shown: His6-SUMO, N-terminal, cleaved) VTDSINWASGEDDHVVARAEYDFAAVSEEEISFRAGDMLNLALKEQQPKVRGWLLASLDGQTTGLIPANYVKILGKRKGRKTVESS"
2,binds,"PEX13 SH3-CTR (residues 261-403) (domain or fragment, human, UniProt Q92968 261-403, looked up, 15N-labelled in the NMR titrations, unlabelled as ITC titrant; also called PEX13 SH3-CTR 261-403; source: E. coli BL21 (DE3), purified (Ni-NTA, SUMO cleavage, reverse Ni-NTA, SEC); not shown: His6-SUMO, N-terminal, cleaved) VTDSINWASGEDDHVVARAEYDFAAVSEEEISFRAGDMLNLALKEQQPKVRGWLLASLDGQTTGLIPANYVKILGKRKGRKTVESSKVSKQQQSFTNPTLTKGATVADSLDEQEAAFESVFVETNKVPVAPDSIGKDGEKQDL"
